The results in this text go back to patent US12150995B2, “IRAK degraders and uses thereof” (Kymera Therapeutics, Inc., priority 2020, dated 2024).

The chains behind the UniProt entries cited, without tags or fusion partners.
UniProt Q9NWZ3, whole entry: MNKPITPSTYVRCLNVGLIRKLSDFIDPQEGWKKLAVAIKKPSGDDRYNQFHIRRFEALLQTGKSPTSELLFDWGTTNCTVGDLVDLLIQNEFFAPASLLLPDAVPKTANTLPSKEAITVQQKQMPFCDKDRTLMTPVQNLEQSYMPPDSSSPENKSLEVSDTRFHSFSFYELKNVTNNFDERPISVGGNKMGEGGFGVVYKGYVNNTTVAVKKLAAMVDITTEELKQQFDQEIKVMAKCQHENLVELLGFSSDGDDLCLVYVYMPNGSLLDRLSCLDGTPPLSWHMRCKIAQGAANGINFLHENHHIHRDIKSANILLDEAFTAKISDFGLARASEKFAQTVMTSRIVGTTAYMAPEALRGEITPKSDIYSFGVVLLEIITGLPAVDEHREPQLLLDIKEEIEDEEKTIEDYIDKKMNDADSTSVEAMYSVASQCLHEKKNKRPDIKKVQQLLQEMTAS

For orientation: DC50 means the concentration at which degradation of the target reaches its halfway point.

Bounds are passed on as bounds.

This test concerns the target IRAK4 (Homo sapiens, UniProt Q9NWZ3). Description: IRAK4 MSD Degradation in OCI-LY10. The following applies: read-out: IRAK4 degradation in OCI-LY10: DC50; OCI-LY10 cells, Meso Scale Discovery, incubated 4 to 24 hours. As to the method:
Degradation of IRAK4 in OCI-LY10 was quantitatively measured using Meso Scale Discovery technology. OCI-LY10 cells were seeded in 96-well plates (Corning 3799) with a density of 300,000 cells per well in 100 μL fresh media. Compounds were then added to the assay plates with a final top concentration of 1 to 10 μM in a 1:3 dilution series with total of 8 doses. The assay plates were then incubated for 4 to 24 hours at 37° C. under 5% CO2. The assay plates were then centrifuged for 5 minutes and the cell pellets were treated with 100 μL/well RIPA lysis buffer (Boston BioProducts BP-115D) with proteinase inhibitors. To prepare MSD assay plates (Meso Scale Discovery Catalog number L15XA-3), the plates were coated with 2 μg/mL capture antibody (mouse Anti-IRAK4 antibody [2H9], ab119942) in PBS, at 40 μL/well. The plates were then incubated overnight at 4° C., washed 3 times with 150 μL/well TBST buffer (Cell Signaling Technology, Catalog number 9997S) and blocked with 150 μL/well blocking buffer (Meso Scale Discovery Catalog number R93BA-4). Cell lysates were then added to MSD assay plates and the plates were incubated at room temperature for 1 hour. The plates were then washed 3 times with 150 μL/well TBST buffer and […] primary detection antibody (rabbit Anti-IRAK4 antibody [Y279], from Abcam. Catalog number ab32511, 1 μg/mL). The assay plates were then incubated at room temperature for 1 hour, washed 3 times with 150 μL/well TBST buffer and 254/well secondary detection antibody, SULFO-TAG anti-rabbit antibody were added (anti rabbit antibody from Meso Scale Discovery, Catalog number R32AB-1, 1 μg/mL). The assay plates were then incubated at room temperature for 1 hour, washed 3 times with 150 μL/well TBST buffer, and 150 μL/well MSD reading buffer (Meso Scale Discovery catalog number R92TC-2) was added. The plates were then analyzed by a MSD reader (Meso Scale Discovery, Model Quick Plex SQ 120). The data was then analyzed by software Prism 7.0 from GraphPad and the dose-depended IRAK4 degradation were fit using a three-parameter logistic equation to calculate DC50.
The letter codes for IRAK4 DC50 include: A (<0.01 μM); B (0.01-0.05 μM); C (0.05-0.1 μM); D (0.1-0.2 μM); and E (>0.2 μM).

For the molecule `COc1cc2c(cc1NC(=O)c1cccc(C(F)(F)F)n1)CN([C@H]1CC[C@H](CN3CCC(c4cccc5c4n(C)c(=O)n5C4CCC(=O)NC4=O)CC3)CC1)C2=O` (some centres unmarked), the half-maximal degradation concentration (DC50) was below 10 nM.
With `COc1cc2nn([C@H]3CC[C@H](CN4C[C@@H]5C[C@H]4CN5c4cccc5c(N6CCC(=O)NC6=O)cncc45)CC3)cc2cc1NC(=O)c1cccc(C(F)(F)F)n1` the figure was 10 to 50 nM; with `COc1cc2nn([C@H]3CC[C@H](CN(C)C4CCN(c5cccc6c5n(C)c(=O)n6C5CCC(=O)NC5=O)CC4)CC3)cc2cc1NC(=O)n1ccc2cc(C#N)cnc21` (some centres unmarked), 10 to 50 nM; with `CC(C)(O)c1cc2nn([C@H]3CC[C@H](CN4C[C@@H]5C[C@H]4CN5c4cccc5c(N6CCC(=O)NC6=O)cncc45)CC3)cc2cc1NC(=O)c1cccc(C(F)(F)F)n1`, below 10 nM.
For the molecule `COc1cc2nn([C@H]3CC[C@H](CN(C)[C@H]4CC[C@H](c5cccc6c5n(C)c(=O)n6C5CCC(=O)NC5=O)CC4)CC3)cc2cc1NC(=O)c1cnnc(C(F)(F)F)c1` (some centres unmarked), the 50% degradation concentration (DC50) is above 200 nM.
With `Cn1c(=O)n(C2CCC(=O)NC2=O)c2cccc(N3CCN(C[C@H]4CC[C@H](n5cc6cc(NC(=O)c7cccc(C(F)(F)F)n7)c(N7CCOCC7)cc6n5)CC4)CC3)c21` (some centres unmarked) the figure was 10 to 50 nM.
`COc1ccc2c(c1C1CCN(C[C@H]3CC[C@H](n4cc5cc(NC(=O)c6cccc(C(F)(F)F)n6)ncc5n4)CC3)CC1)n(C)c(=O)n2[C@H]1CCC(=O)NC1=O`: the DC50 was below 10 nM.
The result for `Cc1cc2nn(C3CCC(CN4CC5CCC(C4)N5c4cccc5c4n(C)c(=O)n5C4CCC(=O)NC4=O)CC3)cc2cc1NC(=O)c1cccc(C(F)(F)F)n1` (centres unmarked) reads 100 to 200 nM; that for `Cc1cc2nn([C@H]3CC[C@H](CN4CCN(c5cccc6c5n(C)c(=O)n6C5CCC(=O)NC5=O)CC4C)CC3)cc2cc1NC(=O)c1cccc(C(F)(F)F)n1` (some centres unmarked), 10 to 50 nM.
With `CC(C)Nc1c(C(=O)N[C@H]2CC[C@H](CN3CCC(c4cccc5c(N6CCC(=O)NC6=O)cncc45)CC3)CC2)cnc2c1Oc1cc(C#N)ccc1O2` (relative stereo) the figure was 10 to 50 nM; with `COc1ccc2c(c1N1CCN(C[C@H]3CC[C@H](n4cc5cc(NC(=O)c6cccc(C(F)(F)F)n6)ncc5n4)CC3)CC1)n(C)c(=O)n2C1CCC(=O)NC1=O` (some centres unmarked), below 10 nM.
